Test results from patent US20220125752A1, “LEVODOPA DERIVATIVE AND USE THEREOF” (UNIVERSITY OF TSUKUBA, priority 2019, published 2022).

Assay: Uptake to blood by oral administration
Assay type: in vivo, ICR mice
Conditions: oral (tube); L-DOPA 25 mg/kg or Nano^DOPA 105 mg polymer/kg (127 mmol L-DOPA/kg)

N[C@@H](Cc1ccc(O)c(O)c1)C(=O)O [L-DOPA, 3,4-dihydroxy-L-phenylalanine]
initial change in the concentration of L-DOPA in the blood: rapidly increased initially
persistence of the concentration of L-DOPA in the blood: rapidly metabolized
